Values of other authors in paper PMC3729432.

Molecular target: FRB FRB (Homo sapiens) (UniProt P42345)
Assay: fluorescence polarization

- Kd: 6.2 nM
Substance: FKBP12 (from UniProt P62942)
